{"source": "patent US5068358A", "about": "“Process for extracting N-methyl-2-pyrrolidone” (Hoechst Aktiengesellschaft, priority 1988, dated 1991)", "assay": "solubility in water", "conditions": "room temperature", "data": [{"substance": "nonylphenol", "values": [{"measurement": "water solubility", "result": "less than 1 ppm"}, {"measurement": "water solubility (in words)", "result": "virtually water-insoluble"}]}]}
